# Experimental data taken from PubChem BioAssay (NCI).
#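 Interpolation was linear, between the two tested concentrations surrounding the appropriate level; five concentrations were tested over 48 hours in 96-well plates. The concentration for 50% growth inhibition is given as GI50. At the TGI there is no net growth.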
# Legend:
# Assay in all cases: NCI anticancer screen, dose series, 48 h
# HCT-15 colon = system: HCT-15 colon
# SNB-19 CNS = system: SNB-19 CNS
# SK-OV-3 ovarian = system: SK-OV-3 ovarian
# NCI-H322M lung = system: NCI-H322M lung
# MCF7 breast = system: MCF7 breast
# MOLT-4 leukemia = system: MOLT-4 leukemia
# SK-MEL-5 melanoma = system: SK-MEL-5 melanoma
# NCI-H23 lung = system: NCI-H23 lung
# LXFL 529 NSCLC = system: LXFL 529 NSCLC
# LOX IMVI melanoma = system: LOX IMVI melanoma
# HOP-62 NSCLC = system: HOP-62 NSCLC
# SK-MEL-28 melanoma = system: SK-MEL-28 melanoma
# EKVX NSCLC = system: EKVX NSCLC
# HCT-116 colon = system: HCT-116 colon
# CCRF-CEM leukemia = system: CCRF-CEM leukemia
# OVCAR-4 ovarian = system: OVCAR-4 ovarian
# KM12 colon = system: KM12 colon
# M14 melanoma = system: M14 melanoma
# COLO 205 colon = system: COLO 205 colon
# A498 renal = system: A498 renal
# NCI-H460 lung = system: NCI-H460 lung
# M19-MEL melanoma = system: M19-MEL melanoma
# MDA-MB-435 = system: MDA-MB-435
# MALME-3M melanoma = system: MALME-3M melanoma
# HCC-2998 colon = system: HCC-2998 colon
# OVCAR-5 ovarian = system: OVCAR-5 ovarian
# HT29 colon = system: HT29 colon
# A549 NSCLC = system: A549 NSCLC
# RXF 393 renal = system: RXF 393 renal
# HS 578T breast = system: HS 578T breast
# DLD-1 colon = system: DLD-1 colon
# SF-295 CNS = system: SF-295 CNS
# HOP-18 NSCLC = system: HOP-18 NSCLC
# T-47D breast = system: T-47D breast
# NCI-H226 lung = system: NCI-H226 lung
# U251 CNS = system: U251 CNS
# OVCAR-3 ovarian = system: OVCAR-3 ovarian
# ACHN renal = system: ACHN renal
# BT-549 breast = system: BT-549 breast
# TK-10 renal = system: TK-10 renal
# UACC-257 melanoma = system: UACC-257 melanoma
# DMS 273 small cell lung = system: DMS 273 small cell lung
# HL-60(TB) leukemia = system: HL-60(TB) leukemia
# KM20L2 colon = system: KM20L2 colon
# UO-31 renal = system: UO-31 renal
# XF 498 CNS = system: XF 498 CNS
# UACC-62 melanoma = system: UACC-62 melanoma
# NCI/ADR-RES ovarian = system: NCI/ADR-RES ovarian
# SK-MEL-2 melanoma = system: SK-MEL-2 melanoma
# MDA-N = system: MDA-N
# DMS 114 small cell lung = system: DMS 114 small cell lung
# K-562 leukemia = system: K-562 leukemia
# DU-145 prostate = system: DU-145 prostate
# NCI-H522 lung = system: NCI-H522 lung
# MDA-MB-231 breast = system: MDA-MB-231 breast
# SN12C renal = system: SN12C renal
# RPMI-8226 leukemia = system: RPMI-8226 leukemia
# CAKI-1 renal = system: CAKI-1 renal
# IGROV1 ovarian = system: IGROV1 ovarian
# PC-3 prostate = system: PC-3 prostate
# SF-268 CNS = system: SF-268 CNS
# SR leukemia = system: SR leukemia
# 786-0 renal = system: 786-0 renal
# SW-620 colon = system: SW-620 colon
# HOP-92 NSCLC = system: HOP-92 NSCLC
# OVCAR-8 ovarian = system: OVCAR-8 ovarian
# SF-539 CNS = system: SF-539 CNS
smiles,measurement,setting,value
CS(=O)(=O)OCCN(CCOS(C)(=O)=O)c1ccc(C(=O)O)cc1,GI50,HCT-15 colon,> 100 µM
same,TGI,HCT-15 colon,> 100 µM
same,GI50,SNB-19 CNS,> 100 µM
same,TGI,SNB-19 CNS,> 100 µM
same,GI50,SK-OV-3 ovarian,> 100 µM
same,TGI,SK-OV-3 ovarian,> 100 µM
same,GI50,NCI-H322M lung,> 100 µM
same,TGI,NCI-H322M lung,> 100 µM
same,GI50,MCF7 breast,> 100 µM
same,TGI,MCF7 breast,> 100 µM
same,GI50,MOLT-4 leukemia,> 100 µM
same,TGI,MOLT-4 leukemia,> 100 µM
same,GI50,SK-MEL-5 melanoma,> 100 µM
same,TGI,SK-MEL-5 melanoma,> 100 µM
same,GI50,NCI-H23 lung,> 100 µM
same,TGI,NCI-H23 lung,> 100 µM
same,GI50,LXFL 529 NSCLC,> 100 µM
same,TGI,LXFL 529 NSCLC,> 100 µM
same,GI50,LOX IMVI melanoma,> 100 µM
same,TGI,LOX IMVI melanoma,> 100 µM
same,GI50,HOP-62 NSCLC,> 100 µM
same,TGI,HOP-62 NSCLC,> 100 µM
same,GI50,SK-MEL-28 melanoma,> 100 µM
same,TGI,SK-MEL-28 melanoma,> 100 µM
same,GI50,EKVX NSCLC,> 100 µM
same,TGI,EKVX NSCLC,> 100 µM
same,GI50,HCT-116 colon,> 100 µM
same,TGI,HCT-116 colon,> 100 µM
same,GI50,CCRF-CEM leukemia,53.8 µM
same,TGI,CCRF-CEM leukemia,> 100 µM
same,GI50,OVCAR-4 ovarian,> 100 µM
same,TGI,OVCAR-4 ovarian,> 100 µM
same,GI50,KM12 colon,> 100 µM
same,TGI,KM12 colon,> 100 µM
same,GI50,M14 melanoma,> 100 µM
same,TGI,M14 melanoma,> 100 µM
same,GI50,COLO 205 colon,> 100 µM
same,TGI,COLO 205 colon,> 100 µM
same,GI50,A498 renal,> 100 µM
same,TGI,A498 renal,> 100 µM
same,GI50,NCI-H460 lung,> 100 µM
same,TGI,NCI-H460 lung,> 100 µM
same,GI50,M19-MEL melanoma,> 100 µM
same,TGI,M19-MEL melanoma,> 100 µM
same,GI50,MDA-MB-435,> 100 µM
same,TGI,MDA-MB-435,> 100 µM
same,GI50,MALME-3M melanoma,> 100 µM
same,TGI,MALME-3M melanoma,> 100 µM
same,GI50,HCC-2998 colon,> 100 µM
same,TGI,HCC-2998 colon,> 100 µM
same,GI50,OVCAR-5 ovarian,> 100 µM
same,TGI,OVCAR-5 ovarian,> 100 µM
same,GI50,HT29 colon,> 100 µM
same,TGI,HT29 colon,> 100 µM
same,GI50,A549 NSCLC,> 100 µM
same,TGI,A549 NSCLC,> 100 µM
same,GI50,RXF 393 renal,> 100 µM
same,TGI,RXF 393 renal,> 100 µM
same,GI50,HS 578T breast,> 100 µM
same,TGI,HS 578T breast,> 100 µM
same,GI50,DLD-1 colon,> 100 µM
same,TGI,DLD-1 colon,> 100 µM
same,GI50,SF-295 CNS,> 100 µM
same,TGI,SF-295 CNS,> 100 µM
same,GI50,HOP-18 NSCLC,> 100 µM
same,TGI,HOP-18 NSCLC,> 100 µM
same,GI50,T-47D breast,> 100 µM
same,TGI,T-47D breast,> 100 µM
same,GI50,NCI-H226 lung,> 100 µM
same,TGI,NCI-H226 lung,> 100 µM
same,GI50,U251 CNS,> 100 µM
same,TGI,U251 CNS,> 100 µM
same,GI50,OVCAR-3 ovarian,> 100 µM
same,TGI,OVCAR-3 ovarian,> 100 µM
same,GI50,ACHN renal,> 100 µM
same,TGI,ACHN renal,> 100 µM
same,GI50,BT-549 breast,> 100 µM
same,TGI,BT-549 breast,> 100 µM
same,GI50,TK-10 renal,> 100 µM
same,TGI,TK-10 renal,> 100 µM
same,GI50,UACC-257 melanoma,> 100 µM
same,TGI,UACC-257 melanoma,> 100 µM
same,GI50,DMS 273 small cell lung,> 100 µM
same,TGI,DMS 273 small cell lung,> 100 µM
same,GI50,HL-60(TB) leukemia,> 100 µM
same,TGI,HL-60(TB) leukemia,> 100 µM
same,GI50,KM20L2 colon,> 100 µM
same,TGI,KM20L2 colon,> 100 µM
same,GI50,UO-31 renal,> 100 µM
same,TGI,UO-31 renal,> 100 µM
same,GI50,XF 498 CNS,> 100 µM
same,TGI,XF 498 CNS,> 100 µM
same,GI50,UACC-62 melanoma,> 100 µM
same,TGI,UACC-62 melanoma,> 100 µM
same,GI50,NCI/ADR-RES ovarian,> 100 µM
same,TGI,NCI/ADR-RES ovarian,> 100 µM
same,GI50,SK-MEL-2 melanoma,> 100 µM
same,TGI,SK-MEL-2 melanoma,> 100 µM
same,GI50,MDA-N,> 100 µM
same,TGI,MDA-N,> 100 µM
same,GI50,DMS 114 small cell lung,> 100 µM
same,TGI,DMS 114 small cell lung,> 100 µM
same,GI50,K-562 leukemia,> 100 µM
same,TGI,K-562 leukemia,> 100 µM
same,GI50,DU-145 prostate,> 100 µM
same,TGI,DU-145 prostate,> 100 µM
same,GI50,NCI-H522 lung,> 100 µM
same,TGI,NCI-H522 lung,> 100 µM
same,GI50,MDA-MB-231 breast,> 100 µM
same,TGI,MDA-MB-231 breast,> 100 µM
same,GI50,SN12C renal,> 100 µM
same,TGI,SN12C renal,> 100 µM
same,GI50,RPMI-8226 leukemia,> 100 µM
same,TGI,RPMI-8226 leukemia,> 100 µM
same,GI50,CAKI-1 renal,> 100 µM
same,TGI,CAKI-1 renal,> 100 µM
same,GI50,IGROV1 ovarian,> 100 µM
same,TGI,IGROV1 ovarian,> 100 µM
same,GI50,PC-3 prostate,> 100 µM
same,TGI,PC-3 prostate,> 100 µM
same,GI50,SF-268 CNS,> 100 µM
same,TGI,SF-268 CNS,> 100 µM
same,GI50,SR leukemia,> 100 µM
same,TGI,SR leukemia,> 100 µM
same,GI50,786-0 renal,> 100 µM
same,TGI,786-0 renal,> 100 µM
same,GI50,SW-620 colon,> 100 µM
same,TGI,SW-620 colon,> 100 µM
same,GI50,HOP-92 NSCLC,> 100 µM
same,TGI,HOP-92 NSCLC,> 100 µM
same,GI50,OVCAR-8 ovarian,> 100 µM
same,TGI,OVCAR-8 ovarian,> 100 µM
same,GI50,SF-539 CNS,> 100 µM
same,TGI,SF-539 CNS,> 100 µM
